The values that follow come from patent EP4831186A1, “FUSED TRICYCLIC COMPOUND AND MEDICAL USE THEREOF” (dated 2026).

The test system of series [1] is AsPc-1 cells. The experiment in a line: Inhibitory activity against AsPc-1 cell proliferation (CCK-8). The settings on record: read-out: Inhibitory activity IC50 against proliferation of AsPc-1 cells, 72 h incubation.
Series [2] deals with Capan-1 cells. The experiment in a line: Inhibitory activity against Capan-1 cell proliferation (CCK-8). The note with it: read-out: Inhibitory activity IC50 against proliferation of Capan-1 cells, 5 days incubation.
Series [3] can be described thus: In vivo pharmacokinetics in mice. The note with it: ICR mice, intragastric administration, 35 mg/kg.

`C#Cc1c(F)ccc2cccc(-c3nc4c5c(nc(OCC6CCCN6C)nc5c3F)N(C(C)c3cccnc3NP(=O)(O)O)C(C)CO4)c12` (stereo not shown): the IC50 in series [1] and in series [2] was less than 100 nM each time.

For the compound `C[C@H](c1cccnc1NP(=O)(O)O)N1c2nc(OC[C@@]34CCCN3C[C@H](F)C4)nc3c(F)c(-c4cc(N)cc(Cl)c4C(F)(F)F)nc(c23)OC[C@@H]1C`, the IC50 in series [1] and in series [2] was less than 100 nM in each case.

As for `C#Cc1c(F)ccc2cccc(-c3nc4c5c(nc(OCC67CCCN6CC(F)C7)nc5c3F)N(C(C)c3cccnc3NP(=O)(O)O)C(C)CO4)c12` (stereo not shown), the IC50 in series [1] and in series [2] was less than 100 nM throughout. Also, in series [3], the “oral pharmacokinetic parameters (including Tmax, Cmax, AUC, etc.) in mice” value is “good oral pharmacokinetic parameters”.
